Measurements from patent publication US10077261B2, “Imidazolin-5-one derivative useful as FASN inhibitors for the treatment of cancer” (Janssen Pharmaceutica NV, priority 2012, dated 2018).
Like-named read-outs stand apart in the source and are kept apart here.

Sequences of proteins named here, by UniProt entry; tags and fusion partners are left off.
UniProt P49327, whole entry: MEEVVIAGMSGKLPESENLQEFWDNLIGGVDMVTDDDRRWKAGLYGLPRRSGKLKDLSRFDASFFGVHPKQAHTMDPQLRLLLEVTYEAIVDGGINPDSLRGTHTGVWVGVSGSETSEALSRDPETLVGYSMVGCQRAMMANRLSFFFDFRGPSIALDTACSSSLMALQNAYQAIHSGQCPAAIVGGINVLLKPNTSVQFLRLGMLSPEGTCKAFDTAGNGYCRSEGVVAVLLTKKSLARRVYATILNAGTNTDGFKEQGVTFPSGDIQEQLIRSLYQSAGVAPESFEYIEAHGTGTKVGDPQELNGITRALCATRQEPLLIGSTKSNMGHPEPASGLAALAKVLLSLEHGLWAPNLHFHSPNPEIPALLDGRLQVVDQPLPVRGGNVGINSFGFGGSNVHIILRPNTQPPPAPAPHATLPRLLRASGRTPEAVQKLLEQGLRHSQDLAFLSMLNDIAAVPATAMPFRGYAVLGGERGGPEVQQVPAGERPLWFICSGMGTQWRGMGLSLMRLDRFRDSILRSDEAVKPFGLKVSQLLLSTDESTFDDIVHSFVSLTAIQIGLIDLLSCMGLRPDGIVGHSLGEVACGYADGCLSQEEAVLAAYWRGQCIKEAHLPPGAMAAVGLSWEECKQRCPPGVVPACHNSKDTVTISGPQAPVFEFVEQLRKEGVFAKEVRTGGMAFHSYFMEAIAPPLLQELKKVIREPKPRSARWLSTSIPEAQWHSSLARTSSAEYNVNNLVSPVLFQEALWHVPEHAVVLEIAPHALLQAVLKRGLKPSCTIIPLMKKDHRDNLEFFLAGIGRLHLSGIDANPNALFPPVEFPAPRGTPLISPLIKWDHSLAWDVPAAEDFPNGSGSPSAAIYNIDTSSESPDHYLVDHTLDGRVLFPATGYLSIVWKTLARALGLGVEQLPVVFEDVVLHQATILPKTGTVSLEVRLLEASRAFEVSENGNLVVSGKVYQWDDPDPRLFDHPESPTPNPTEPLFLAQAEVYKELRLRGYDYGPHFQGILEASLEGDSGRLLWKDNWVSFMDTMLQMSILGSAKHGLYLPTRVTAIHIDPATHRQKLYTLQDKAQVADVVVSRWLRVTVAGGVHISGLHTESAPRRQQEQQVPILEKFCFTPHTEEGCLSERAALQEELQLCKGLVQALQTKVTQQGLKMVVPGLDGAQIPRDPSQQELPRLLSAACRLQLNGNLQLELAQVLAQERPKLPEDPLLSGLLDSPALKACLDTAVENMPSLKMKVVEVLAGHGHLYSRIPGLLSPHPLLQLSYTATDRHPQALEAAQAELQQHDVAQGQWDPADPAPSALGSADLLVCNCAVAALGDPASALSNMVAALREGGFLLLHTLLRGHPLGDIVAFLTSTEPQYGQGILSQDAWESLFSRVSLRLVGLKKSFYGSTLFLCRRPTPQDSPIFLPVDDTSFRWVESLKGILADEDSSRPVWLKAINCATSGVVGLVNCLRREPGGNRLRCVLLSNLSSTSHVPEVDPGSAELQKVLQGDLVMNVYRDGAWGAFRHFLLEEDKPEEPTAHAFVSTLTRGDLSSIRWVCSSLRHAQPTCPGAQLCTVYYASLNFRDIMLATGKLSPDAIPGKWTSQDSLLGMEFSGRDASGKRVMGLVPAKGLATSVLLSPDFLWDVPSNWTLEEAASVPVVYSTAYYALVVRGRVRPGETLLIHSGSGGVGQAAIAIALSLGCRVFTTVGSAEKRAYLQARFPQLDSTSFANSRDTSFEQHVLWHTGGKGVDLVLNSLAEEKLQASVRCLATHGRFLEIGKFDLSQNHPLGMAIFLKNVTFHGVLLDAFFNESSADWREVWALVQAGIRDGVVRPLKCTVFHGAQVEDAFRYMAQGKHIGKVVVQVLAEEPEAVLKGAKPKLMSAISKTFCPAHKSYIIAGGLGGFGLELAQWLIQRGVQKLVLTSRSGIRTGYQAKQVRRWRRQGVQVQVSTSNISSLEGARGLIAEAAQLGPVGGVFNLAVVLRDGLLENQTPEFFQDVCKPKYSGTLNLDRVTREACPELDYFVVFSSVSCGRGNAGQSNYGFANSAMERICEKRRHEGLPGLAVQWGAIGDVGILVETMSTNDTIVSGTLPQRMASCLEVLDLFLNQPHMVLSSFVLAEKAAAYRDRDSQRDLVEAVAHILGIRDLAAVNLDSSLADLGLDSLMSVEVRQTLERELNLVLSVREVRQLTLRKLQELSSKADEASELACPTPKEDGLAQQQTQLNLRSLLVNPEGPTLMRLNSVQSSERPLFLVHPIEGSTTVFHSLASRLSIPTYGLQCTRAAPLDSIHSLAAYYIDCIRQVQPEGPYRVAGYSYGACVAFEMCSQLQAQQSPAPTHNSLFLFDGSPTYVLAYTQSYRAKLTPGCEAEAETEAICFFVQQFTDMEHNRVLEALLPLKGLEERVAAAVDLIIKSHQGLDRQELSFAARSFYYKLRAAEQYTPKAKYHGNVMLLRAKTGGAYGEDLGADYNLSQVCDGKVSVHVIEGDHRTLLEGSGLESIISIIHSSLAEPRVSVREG

What was measured:
[1] = tested on: LNCaP-Vancouver prostate cells; assay: In vitro LNCaP Vancouver prostate cell proliferation assay in lipid reduced medium; assay type: cell-based; conditions: mean where tested more than once, ~ = standard error of pIC50 larger than 0.5
A2780 ovarian cells [2] = assay: A2780 ovarian cell proliferation assay in lipid reduced medium, without palmitate (MTT); conditions: 96 h incubation, "~" = standard error of pIC50 larger than 0.5
[3] = tested on: PC-3M-Luc-C6 prostate cells; assay: In vitro PC-3M-Luc-C6 prostate cell proliferation assay in lipid reduced medium; assay type: cell-based; conditions: 96 h incubation, ATP-glow luminescence, mean where tested more than once, ~ = standard error of pIC50 larger than 0.5
A2780 ovarian cells [4] = assay: A2780 ovarian cell proliferation assay in lipid reduced medium, with palmitate (MTT); conditions: 25 μM palmitate, 96 h incubation, "~" = standard error of pIC50 larger than 0.5
[5] = target: hFASN enzyme (full length) (Homo sapiens, UniProt P49327); assay: Fatty Acid Synthase (FASN) inhibition scintillation proximity assay; assay type: biochemical; conditions: for Human FASN % inhibition @ 10 μM: 10 μM test compound
[6] = target: Fatty Acid Synthase Keto-reductase Domain (FASN KR) (Homo sapiens, UniProt P49327); assay: Fatty Acid Synthase keto-reductase domain (FASN KR) inhibition, NADPH oxidation at 340 nm; conditions: absorbance at 340 nm, ethyl acetoacetate substrate

SMILES | pIC50 LNCaP_Vancouver prostate cell [1] | pIC50 A2780 Ovarian Cell, Without Palmitate (A2780 ovarian cells [2]) | pIC50 PC-3M-Luc-C6 prostate cell [3] | pIC50 A2780 Ovarian Cell, With Palmitate (A2780 ovarian cells [4]) | Human FASN pIC50 [5] | Human FASN % inhibition @ 10 μM [5] [%] | FASN Keto-reductase Domain pIC50 [6] | Human FASN pIC50 ([5]; hFASN enzyme, full length, "~" means standard error of the pIC50 is larger than 0.5)
O=C(C1CC1)N1CC[C@@H](CN2C(=O)C3(CC3)N=C2c2ccc(-c3ccc4[nH]ncc4c3)cn2)C1 | 5.39 | 6.19 | 6.11 | <5 | 6.29 | 96 | 5.96 | 
Cn1ncc2cc(-c3ccc(C4=NC5(CC5)C(=O)N4CC4CN(C(=O)C5(O)CC5)C4)cc3Cl)ccc21 | <5 | 5.66 | 5.66 | <5 |  | 82 | 5.6 | 5.8
